This is an account of results in patent publication US8022239B2, “Mechanism-based inactivators of autotaxin” (The University of Memphis Research Foundation, priority 2008, dated 2011).

The target in this experiment is T1, autotaxin (ATX) (Homo sapiens, UniProt Q13822).
T1 construct: concentrated conditioned serum-free medium (CCM) from MDA MB-435 cells as the source of ATX; endogenous in cells; host or cells: MDA-MB-435 cells (serum-free conditioned medium, concentrated ~10 fold)
Kind of experiment: Autotaxin inactivation analysis: ATX-mediated hydrolysis of FS-3 (fluorescence), concentrated conditioned medium from MDA MB-435 cells as ATX source. The note with it: FS-3 substrate. It counts as biochemical. The protocol: The test protocol was as follows:
MDA-MB-435 cells were cultured at 37° C. and 5% CO2 in Dulbecco's Modified Eagle Medium (DMEM) (MediaTech, Herndon, Va.) containing 5% fetal bovine serum (Hyclone, Logan, Utah), 100 U/ml penicillin, 100 μg/ml streptomycin (Hyclone, Logan, Utah) and 292 μg/ml L-glutamine (Hyclone, Logan, Utah). Cells were grown to ˜80% confluence at which time the cells were washed twice with sterile phosphate buffered saline prior to the addition of serum free DMEM containing L-glutamine. Conditioned medium was collected after 24-30 hours, supplemented with 20% ethylene glycol and was clarified by centrifugation at 3000×g and 4° C. for 10 min. The media was concentrated ˜10 fold and buffer exchanged into Tris (50 mM, pH 7.4) containing 20% ethylene glycol using an Amicon 8050 cell fitted with a PM30 filter (MILLIPORE®, Billerica, Mass.). Aliquots of concentrated conditioned media were stored at 4° C. until needed.
ATX inhibition was assayed using FS-3 (Echelon Biosciences, Inc., Salt Lake City, Utah, USA) as a substrate and ˜10 times concentrated conditioned serum-free medium (CCM) from MDA MB-435 cells as the source of ATX. Assays were performed in 96-well plates with CCM comprising one-third of the total volume and final FS-3 and charcoal-stripped fatty acid free BSA concentrations of 1 and 30 μM in assay buffer (1 mM each CaCl2 and MgCl2, 5 mM KCl, 140 mM NaCl, 50 mM Tris pH 8.0). Fluorescence was read at 5 minute intervals by a Synergy2 system (BioTek, Winooski, Vt.) with excitation and emission wavelengths of 485 and 538 nm, respectively. […] Fluorescence readings were normalized to vehicle control after subtraction of fluorescence in the absence of CCM. Data are shown as the mean±S.D. of at least three wells.

Regarding `CCCCCCCCCCCCCCCCOP(=O)(O)Oc1ccc(C(F)F)cc1` [Example 3, (16:0)-p-difluorophosphodiester], for the setting “30 uM, time 6 hours”, the “Fluorescence (% Response)” value came out at 10.4%.
For the molecule “lysophosphatidic acid [LPA, reference compound]”, the “Fluorescence (% Response)” value runs as follows: (1 uM, time 0 hour) 15.6%; (1 uM, time 1 hour) 10.4%; (1 uM, time 3 hours) 1.0%; (1 uM, time 6 hours) 1.0%.
